{"sequences": {"note": "By UniProt entry, the sequences of proteins in these tests, tags left out. Where a name states a change or a piece, a line headed by the entry shows the natural chain unless it says otherwise.", "UniProt P78536": "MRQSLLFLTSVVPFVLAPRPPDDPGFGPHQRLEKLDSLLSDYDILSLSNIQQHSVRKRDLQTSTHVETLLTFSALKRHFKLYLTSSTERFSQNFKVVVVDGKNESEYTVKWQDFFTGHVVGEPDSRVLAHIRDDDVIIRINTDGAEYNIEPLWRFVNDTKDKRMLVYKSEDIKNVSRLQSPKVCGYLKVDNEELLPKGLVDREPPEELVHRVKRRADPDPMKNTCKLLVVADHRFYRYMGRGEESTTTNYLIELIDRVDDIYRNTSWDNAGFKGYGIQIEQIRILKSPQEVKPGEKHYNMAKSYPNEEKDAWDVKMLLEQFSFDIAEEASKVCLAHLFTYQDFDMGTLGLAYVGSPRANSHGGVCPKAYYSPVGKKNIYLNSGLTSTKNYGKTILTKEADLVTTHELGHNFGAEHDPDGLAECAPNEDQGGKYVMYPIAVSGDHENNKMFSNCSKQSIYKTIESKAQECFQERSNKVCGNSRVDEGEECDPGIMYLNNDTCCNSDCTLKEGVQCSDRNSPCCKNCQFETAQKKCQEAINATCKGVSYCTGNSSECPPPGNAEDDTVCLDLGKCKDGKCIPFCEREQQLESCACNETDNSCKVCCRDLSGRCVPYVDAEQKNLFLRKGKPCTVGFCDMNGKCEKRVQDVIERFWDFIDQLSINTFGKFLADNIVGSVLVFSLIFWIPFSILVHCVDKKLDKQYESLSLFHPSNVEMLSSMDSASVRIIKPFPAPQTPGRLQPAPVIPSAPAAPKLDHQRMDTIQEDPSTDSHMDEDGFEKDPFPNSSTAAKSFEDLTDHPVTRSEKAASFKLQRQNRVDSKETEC"}, "source": "PubChem BioAssay AID743257", "about": "(The Scripps Research Institute Molecular Screening Center, 2014)", "note": "The entries are a selection whose mix differs from that of the whole data set. The source made the active and inactive calls.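 How the source made its calls: active means mean inhibition across replicates above the hit cutoff set in the primary screen (cut at about 8.5% in these data); inactive means the rest.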"}
{"target": "Disintegrin and metalloproteinase domain-containing protein 17 (Homo sapiens) (UniProt P78536)", "experiment": "inhibition of human ADAM17 protease activity – biochemical, QFRET peptide cleavage, confirmation (AID 743257);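 further: 0% = DMSO wells and 100% = marimastat wells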", "details": "recombinant ADAM17, EDANS/DABCYL QFRET peptide cleavage; at 6.95 µM; hits give high values", "in_short": "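Assay system: human ADAM17 protease with quenched FRET peptide substrate / Buffer or medium: 50 mM HEPES buffer, pH 7.5, with 0.01% Brij / Schedule: 30 min preincubation, 3 h reaction / Technique: fluorescence at ex 359 nm, em 460 nm / Read-out: percent inhibition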"}
{"smiles": "O=[N+]([O-])c1cc([N+](=O)[O-])c(CCNc2ccccc2)c([N+](=O)[O-])c1", "inhibition": "inactive: 2.66%"}
